The target of this assay is T1, cannabinoid receptor (Rattus norvegicus, UniProt P20272).
T1 construct: Synaptosomal membranes were prepared from rat whole brain-minus brainstem; from tissue; host or cells: rat whole brain minus brainstem, synaptosomal membranes (Sprague-Dawley males)
Nature of the assay: centrifugation radioligand binding assay with [3H]HU-243 on synaptosomal membranes.

Protein sequences, listed by entry. Tags and fused reporters are not part of them.
UniProt P20272, whole entry: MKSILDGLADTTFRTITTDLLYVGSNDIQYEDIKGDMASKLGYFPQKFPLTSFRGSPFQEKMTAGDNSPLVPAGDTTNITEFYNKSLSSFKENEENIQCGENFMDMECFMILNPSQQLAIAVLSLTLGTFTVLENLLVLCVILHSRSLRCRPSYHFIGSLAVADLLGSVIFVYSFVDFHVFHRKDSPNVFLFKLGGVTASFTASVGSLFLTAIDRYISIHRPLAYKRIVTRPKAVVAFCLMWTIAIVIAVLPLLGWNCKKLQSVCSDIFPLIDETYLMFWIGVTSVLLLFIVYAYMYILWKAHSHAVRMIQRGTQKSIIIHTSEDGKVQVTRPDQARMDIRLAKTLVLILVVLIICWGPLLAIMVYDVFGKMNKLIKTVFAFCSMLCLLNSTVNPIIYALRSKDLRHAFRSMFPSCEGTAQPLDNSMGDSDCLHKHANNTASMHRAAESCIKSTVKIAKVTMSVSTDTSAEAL

What is called Ki is the dissociation constant of the complex between target and ligand, obtained from inhibition or displacement. A high value points to lower affinity. In the case of `CCCCC/C=C\C/C=C\C/C=C\C/C=C\CCCC(=O)NCCO` [Arachidonylethanolamide, 5,8,11,14-icosatetraenamide, (N,-2-hydroxyethyl)-(all-Z)], the inhibitory constant (Ki) is, setting by setting: (compounds isolated from the brain and synthesized) 39 ± 5 nM; (inhibition of [3H]HU-243 binding, mean ± SE, n=3, listed as Synthetic anandamide) 39 ± 5 nM.

These data come from patent EP0670826B1, “FATTY ACID DERIVATIVES AND PHARMACEUTICAL COMPOSITIONS CONTAINING THEM” (YISSUM RESEARCH DEVELOPMENT COMPANY OF THE HEBREW …, priority 1992, dated 1994).
